Reference: US20090318375A1, “Crystalline Azithromycin L-Malate Monohydrate and Pharmaceutical Composition Containing Same” (Hanmi Pharm Co., Ltd, priority 2003, published 2009)

Experiment: Hygroscopicity of acid addition salts of azithromycin after storage
Type: physicochemical
Conditions: after 24 hours storage at 40° C. and 75% relative humidity

Succinic acid
Salt form (hygroscopicity): Amorphous, hygroscopic
